Source: patent publication US20260209200A1, “SALTS OF A DIHYDROOROTATE DEHYDROGENASE (DHOD) INHIBITOR” (priority 2022, published 2026)

Experiments:
[1] = Thermodynamic (equilibrium) solubility of PP-001 salts in FaSSIF; type: physicochemical; details: 3 mL FaSSIF, 37° C.; for Final pH: pH tested after 24 hours
Description: Procedure of equilibrium solubility test: […] As the solid was completely dissolved, add more sample to keep it saturated. […] Then at the time point 2 hrs, 0.5 mL of sample solution was transferred into 1.5 mL centrifugation tube and centrifuged at 12,000 RPM for 10 min. The supernatant was diluted by 50% ACN suitable and analyzed by HPLC. The pH was tested after 24 hours.

[2] = Kinetic solubility of PP-001 salts in FaSSIF (HPLC); type: physicochemical; details: 4 mL FaSSIF, 25° C., target 2 mg/mL
Description: Approximately 8 mg (calculated as freebase) of each salt was weighed out into each glass vial and then 4 ml of FaSSIF was added (target concentration was 2 mg/mL). The sample was kept stirring on a magnetic stirrer at a speed of I 00 RPM under 25° C. Then at the time points of initial, 0.5 hr, 1 hr, 2 hrs and 24 hrs, 0.5 mL of sample solution was transferred into 1.5 mL centrifugation tube and centrifuged at 12,000 RPM for 10 min. The supernatant was diluted by 50% ACN suitable and analyzed by HPLC.
An HPLC method of testing solubility was performed as follows in Table A: […]

Molecule | Final pH [1] | Appearance after stirring for 24 hours ([1]; saturated) | Appearance after stirring for 24 hours [2] | Final pH [2]
CNC[C@H](O)[C@@H](O)[C@H](O)[C@H](O)CO [Meglumine] | 6.36 | Suspension | clear solution | 6.52
[K+] [Potassium] | 6.49 |  |  | 
NCCCC[C@H](N)C(=O)O [Lysine] | 6.53 |  | clear solution | 6.50
[Mg] [Magnesium] |  |  |  | 6.49
Sodium |  |  |  | 6.53
